Measured values published in patent US20070099907A1 (priority 2002, published 2007).

Test system: activated partial-thromboplastin time (APTT)
Test: Activated partial thromboplastin time after unfractionated heparin in the pilot study
Format: in vivo, human
Method: Patients were recruited from the Centro de Salud and the Centro Modelo de Cardiologia, Tucuman, Argentina. Inclusion criteria were chest pain within the previous 24 hours associated with ST-segment depression (>0.5 mm) and either ECG evidence of ischemia or previously documented coronary artery disease. Exclusion criteria were persistent ST-segment elevation and increased levels of the MB isoenzyme of creatine kinase (CK-MB) consistent with acute myocardial infarction, revascularization procedures within the preceding 6 months, malignancy, pregnancy, renal or hepatic diseases, use of anticoagulant therapy, treatment with anti-inflammatory drugs, or contraindication of the study drugs. […] Both groups received aspirin for 30 days. The dose range was 100 to 300 mg per day at the discretion of the treating physician. CK-MB levels were measured before randomization. Additional assays were performed after an episode of chest pain to confirm the diagnosis of acute MI. All patients received subcutaneous LMWH (either nadroparin 87 IU/kg BID or enoxaparin 1 mg/kg BID) or intravenous UFH given as an initial bolus of 5000 IU followed by continuous infusion at 1000 IU per hour for 7 days or until discharge from the hospital. The activated partial-thromboplastin time (APTT) was used to assess the degree of anticoagulation in patients receiving intravenous unfractionated heparin. Patients were tested every 12 hours on the first day and every 24 hours subsequently. The APTT was maintained in the range 45 to 87 seconds (normal value, 30±5 seconds).
The nature of the quantitative variables distribution was assessed by the Shapiro-Wilk test. Differences between the 2 treatment groups were analyzed by the Student's t test (independent samples) or the Mann-Whitney test, according to the nature of the distribution. Differences in terms of activated partial thromboplastin time after unfractionated heparin were assessed by a 2-way ANOVA model, with repeated measures in one of the factors (Student Newman-Keuls post-hoc test). Univariate associations between qualitative variables were assessed by X^2 (Yates corrected) and Spearman rank-order correlations.

For `Cc1cnc(NC(=O)C2=C(O)c3ccccc3S(=O)(=O)N2C)s1` [Meloxicam, 4-hydroxy-2-methyl-N-(5-methyl-2-thiazolyl)-2H-1,2-benzothiazine-3-carboxamide-1,1-dioxide], the “APTT in therapeutic range (45-87 s), %” value (Day 1 (first 24 hours)) was 67.7%, the “APTT over therapeutic range (>87 s), %” value (Day 1 (first 24 hours)) was 6.5% and the “APTT under therapeutic range (<45 s), %” value (Day 1 (first 24 hours), listed as Melox) was 25.8%. For the same molecule, the “APTT under therapeutic range (<45 s), %” value (Day 1 (first 24 hours), listed as meloxicam) was 26%, the “APTT in therapeutic range (45-87 s), %” value (Day 2) was 79.7% and the “APTT over therapeutic range (>87 s), %” value (Day 2) was 16%. For the same molecule, the “APTT under therapeutic range (<45 s), %” value (Day 2) was 3.6%, the “APTT in therapeutic range (45-87 s), %” value (Day 3) was 52.3% and the “APTT over therapeutic range (>87 s), %” value (Day 3) was 47.7%. The “APTT under therapeutic range (<45 s), %” value (Day 3) was 0%, the “APTT in therapeutic range (45-87 s), %” value (Day 4) was 58.3% and the “APTT over therapeutic range (>87 s), %” value (Day 4) was 41.7%. The “APTT under therapeutic range (<45 s), %” value (Day 4) was 0%.
